Earlier results on five compounds are cited in patent US20230117831A1, “MULTI-FUNCTIONAL CHIMERIC MOLECULES” (THE BROAD INSTITUTE, INC., priority 2020, published 2023).

The chains behind the UniProt entries cited, without tags or fusion partners. Where a name states a change or a piece, a line headed by the entry shows the natural chain unless it says otherwise. Residues count along the entry.
UniProt P30530, 26-894, species assumed: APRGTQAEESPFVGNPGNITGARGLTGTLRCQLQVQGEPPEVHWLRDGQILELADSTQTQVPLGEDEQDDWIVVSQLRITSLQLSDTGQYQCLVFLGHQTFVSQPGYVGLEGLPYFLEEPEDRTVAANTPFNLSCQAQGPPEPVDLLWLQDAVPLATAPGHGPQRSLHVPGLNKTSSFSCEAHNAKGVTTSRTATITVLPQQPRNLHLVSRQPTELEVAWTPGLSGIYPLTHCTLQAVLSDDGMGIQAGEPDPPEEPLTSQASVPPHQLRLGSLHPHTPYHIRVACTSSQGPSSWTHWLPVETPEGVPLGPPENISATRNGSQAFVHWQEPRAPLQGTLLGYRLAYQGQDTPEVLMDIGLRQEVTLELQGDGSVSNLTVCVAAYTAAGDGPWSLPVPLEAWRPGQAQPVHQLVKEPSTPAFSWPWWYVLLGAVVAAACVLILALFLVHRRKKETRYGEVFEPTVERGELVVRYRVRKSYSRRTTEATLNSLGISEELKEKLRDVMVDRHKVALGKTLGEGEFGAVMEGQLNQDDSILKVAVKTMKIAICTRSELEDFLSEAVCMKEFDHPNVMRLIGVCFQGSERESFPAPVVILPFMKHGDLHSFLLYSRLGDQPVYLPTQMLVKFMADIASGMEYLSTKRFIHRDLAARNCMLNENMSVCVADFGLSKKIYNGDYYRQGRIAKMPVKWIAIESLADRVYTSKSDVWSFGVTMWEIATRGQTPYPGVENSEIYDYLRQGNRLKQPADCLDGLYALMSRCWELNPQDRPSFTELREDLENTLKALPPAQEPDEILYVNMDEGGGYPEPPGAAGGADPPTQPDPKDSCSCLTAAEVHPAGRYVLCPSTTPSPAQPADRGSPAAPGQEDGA
UniProt O00329: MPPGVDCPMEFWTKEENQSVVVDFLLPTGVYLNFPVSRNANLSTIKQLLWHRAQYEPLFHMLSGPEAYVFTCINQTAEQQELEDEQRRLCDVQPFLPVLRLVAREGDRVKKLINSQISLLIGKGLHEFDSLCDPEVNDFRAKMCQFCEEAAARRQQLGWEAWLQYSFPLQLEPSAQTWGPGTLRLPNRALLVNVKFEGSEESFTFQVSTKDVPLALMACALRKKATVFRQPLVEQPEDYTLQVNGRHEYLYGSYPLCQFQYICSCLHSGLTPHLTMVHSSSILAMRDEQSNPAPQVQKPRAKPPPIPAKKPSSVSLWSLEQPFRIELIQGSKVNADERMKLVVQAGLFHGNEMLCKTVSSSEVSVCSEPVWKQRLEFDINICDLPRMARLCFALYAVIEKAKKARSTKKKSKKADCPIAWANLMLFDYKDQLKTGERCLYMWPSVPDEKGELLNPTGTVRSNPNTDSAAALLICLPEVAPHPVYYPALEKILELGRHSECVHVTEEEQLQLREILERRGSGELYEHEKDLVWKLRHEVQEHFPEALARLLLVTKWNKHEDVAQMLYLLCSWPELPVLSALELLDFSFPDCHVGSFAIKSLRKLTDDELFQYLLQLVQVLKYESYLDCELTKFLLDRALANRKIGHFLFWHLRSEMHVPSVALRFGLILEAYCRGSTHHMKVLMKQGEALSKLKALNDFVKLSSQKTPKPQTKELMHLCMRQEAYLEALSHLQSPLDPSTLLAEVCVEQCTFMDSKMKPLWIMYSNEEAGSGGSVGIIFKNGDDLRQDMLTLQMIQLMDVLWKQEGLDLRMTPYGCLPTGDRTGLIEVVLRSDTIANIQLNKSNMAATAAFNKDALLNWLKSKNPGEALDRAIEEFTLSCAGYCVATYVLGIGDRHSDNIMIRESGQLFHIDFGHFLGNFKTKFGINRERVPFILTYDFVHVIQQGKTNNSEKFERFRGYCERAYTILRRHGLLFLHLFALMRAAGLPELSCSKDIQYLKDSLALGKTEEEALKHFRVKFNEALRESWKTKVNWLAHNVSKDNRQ
UniProt P42336, whole entry: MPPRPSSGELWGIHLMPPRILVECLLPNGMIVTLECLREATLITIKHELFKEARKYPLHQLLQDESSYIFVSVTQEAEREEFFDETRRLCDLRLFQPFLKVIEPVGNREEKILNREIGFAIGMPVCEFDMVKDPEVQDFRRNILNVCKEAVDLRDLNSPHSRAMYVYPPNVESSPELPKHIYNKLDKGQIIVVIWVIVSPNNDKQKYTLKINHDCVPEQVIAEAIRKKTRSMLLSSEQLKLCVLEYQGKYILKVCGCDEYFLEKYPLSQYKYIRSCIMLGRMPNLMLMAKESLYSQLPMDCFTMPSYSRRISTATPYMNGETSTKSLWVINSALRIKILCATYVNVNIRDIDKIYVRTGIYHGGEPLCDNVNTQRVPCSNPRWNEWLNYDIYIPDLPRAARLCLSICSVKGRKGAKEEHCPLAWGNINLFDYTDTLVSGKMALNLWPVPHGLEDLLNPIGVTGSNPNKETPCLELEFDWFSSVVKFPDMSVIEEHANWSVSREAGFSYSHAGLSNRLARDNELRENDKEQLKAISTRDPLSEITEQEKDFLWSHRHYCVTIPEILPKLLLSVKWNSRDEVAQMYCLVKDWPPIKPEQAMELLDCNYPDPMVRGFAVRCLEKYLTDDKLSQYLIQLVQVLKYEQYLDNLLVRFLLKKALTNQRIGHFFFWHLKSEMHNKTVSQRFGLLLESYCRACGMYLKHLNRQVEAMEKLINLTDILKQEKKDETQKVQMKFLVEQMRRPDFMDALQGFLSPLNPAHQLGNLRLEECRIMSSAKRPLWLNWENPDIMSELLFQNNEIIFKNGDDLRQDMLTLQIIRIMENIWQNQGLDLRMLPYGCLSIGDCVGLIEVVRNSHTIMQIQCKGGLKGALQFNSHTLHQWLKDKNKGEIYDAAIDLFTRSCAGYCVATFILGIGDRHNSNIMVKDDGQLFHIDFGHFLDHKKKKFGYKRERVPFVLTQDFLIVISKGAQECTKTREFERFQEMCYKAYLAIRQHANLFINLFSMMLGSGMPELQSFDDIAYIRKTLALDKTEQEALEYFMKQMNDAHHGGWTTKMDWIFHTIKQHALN
UniProt Q16539, whole entry, species assumed: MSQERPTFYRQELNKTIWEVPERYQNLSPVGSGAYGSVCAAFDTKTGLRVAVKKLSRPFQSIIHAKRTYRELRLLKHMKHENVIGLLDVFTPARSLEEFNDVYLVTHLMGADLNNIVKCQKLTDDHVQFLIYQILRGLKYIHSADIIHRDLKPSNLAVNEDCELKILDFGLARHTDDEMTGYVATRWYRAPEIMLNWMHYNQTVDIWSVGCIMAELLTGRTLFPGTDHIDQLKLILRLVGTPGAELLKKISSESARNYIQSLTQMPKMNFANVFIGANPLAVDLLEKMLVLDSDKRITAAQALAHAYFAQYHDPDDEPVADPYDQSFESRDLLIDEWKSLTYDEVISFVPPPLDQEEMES
UniProt P07949, 29-1114, species assumed: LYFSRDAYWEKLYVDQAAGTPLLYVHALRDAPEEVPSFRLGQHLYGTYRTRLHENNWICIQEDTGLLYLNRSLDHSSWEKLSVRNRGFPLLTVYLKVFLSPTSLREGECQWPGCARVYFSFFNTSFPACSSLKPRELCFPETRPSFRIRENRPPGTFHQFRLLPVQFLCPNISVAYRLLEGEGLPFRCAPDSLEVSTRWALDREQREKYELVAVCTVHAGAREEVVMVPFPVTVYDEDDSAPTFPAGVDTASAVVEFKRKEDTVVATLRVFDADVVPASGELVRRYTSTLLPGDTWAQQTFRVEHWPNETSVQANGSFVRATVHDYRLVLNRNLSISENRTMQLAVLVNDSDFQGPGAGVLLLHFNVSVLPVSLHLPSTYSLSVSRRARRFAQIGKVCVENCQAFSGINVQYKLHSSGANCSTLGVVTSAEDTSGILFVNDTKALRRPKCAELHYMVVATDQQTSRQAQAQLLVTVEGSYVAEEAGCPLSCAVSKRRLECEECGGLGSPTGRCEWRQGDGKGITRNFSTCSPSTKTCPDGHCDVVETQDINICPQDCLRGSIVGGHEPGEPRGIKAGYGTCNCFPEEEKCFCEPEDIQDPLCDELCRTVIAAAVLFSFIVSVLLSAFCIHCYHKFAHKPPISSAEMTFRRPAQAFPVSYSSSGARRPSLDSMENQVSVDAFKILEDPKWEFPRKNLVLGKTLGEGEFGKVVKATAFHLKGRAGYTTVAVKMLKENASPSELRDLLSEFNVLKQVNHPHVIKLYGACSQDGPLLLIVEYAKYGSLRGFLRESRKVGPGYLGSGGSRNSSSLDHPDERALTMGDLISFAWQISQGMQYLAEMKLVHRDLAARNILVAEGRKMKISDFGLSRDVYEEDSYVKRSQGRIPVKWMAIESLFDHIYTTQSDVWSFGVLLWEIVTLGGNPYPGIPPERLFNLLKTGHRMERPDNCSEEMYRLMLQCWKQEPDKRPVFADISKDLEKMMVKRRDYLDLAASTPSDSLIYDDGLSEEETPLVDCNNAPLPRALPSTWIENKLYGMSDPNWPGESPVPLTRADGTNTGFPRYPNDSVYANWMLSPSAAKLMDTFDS
UniProt Q96GD4, whole entry, species assumed: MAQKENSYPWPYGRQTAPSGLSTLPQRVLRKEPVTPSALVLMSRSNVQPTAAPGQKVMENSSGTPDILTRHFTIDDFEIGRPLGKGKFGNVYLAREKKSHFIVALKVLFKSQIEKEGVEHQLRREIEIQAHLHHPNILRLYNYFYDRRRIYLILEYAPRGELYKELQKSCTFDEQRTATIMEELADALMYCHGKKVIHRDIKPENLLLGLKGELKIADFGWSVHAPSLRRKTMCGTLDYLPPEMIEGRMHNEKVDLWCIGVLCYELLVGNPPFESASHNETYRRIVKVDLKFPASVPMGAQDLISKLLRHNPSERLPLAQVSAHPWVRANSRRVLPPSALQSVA

SMILES strings stand for the structures.

Targets include AXL (Homo sapiens, UniProt P30530); PIK3Cδ/PIK3R1 (Homo sapiens, UniProt O00329); PIK3Cα/PIK3R1 (Homo sapiens, UniProt P42336); p38α (MAPK14) (Homo sapiens, UniProt Q16539); p38α (MAPK14)^b (Homo sapiens, UniProt Q16539); RET (Homo sapiens, UniProt P07949); AurB (AURKB) (Homo sapiens, UniProt Q96GD4).
Conditions in all cases: cited from earlier work
Another data set deals with T1, AurA (AURKA) (Homo sapiens, UniProt O14965).
T1 sequence (O14965 1-403): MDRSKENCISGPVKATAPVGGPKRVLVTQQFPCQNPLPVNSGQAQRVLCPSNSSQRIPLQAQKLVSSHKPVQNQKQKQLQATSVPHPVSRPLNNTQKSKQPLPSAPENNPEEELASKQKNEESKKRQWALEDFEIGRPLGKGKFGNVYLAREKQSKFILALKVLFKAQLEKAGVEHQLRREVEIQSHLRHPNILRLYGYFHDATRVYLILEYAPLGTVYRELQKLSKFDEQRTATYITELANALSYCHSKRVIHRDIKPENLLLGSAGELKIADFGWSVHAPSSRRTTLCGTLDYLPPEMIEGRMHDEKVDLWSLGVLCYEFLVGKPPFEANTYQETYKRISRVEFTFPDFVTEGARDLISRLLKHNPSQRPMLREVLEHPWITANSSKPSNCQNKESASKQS

Consider `C[C@@H](Oc1cc(-c2cnn(C3CCNCC3)c2)cnc1N)c1c(Cl)ccc(F)c1Cl` [Crizotinib], for which, at AXL, the ka was 48200 M⁻¹ s⁻¹ and the “log(ka)” value was 4.68.
As for `O=C(O)c1ccc(Nc2ncc3c(n2)-c2ccc(Cl)cc2C(c2c(F)cccc2F)=NC3)cc1` [MLN8054], at AurA (AURKA), the ka is 3.06e+06 M⁻¹ s⁻¹ and the “log(ka)” value is listed as 6.49.
For `CS(=O)(=O)N1CCN(Cc2cc3nc(-c4cccc5[nH]ncc45)nc(N4CCOCC4)c3s2)CC1` [Pictilisib], the values for the ka on PIK3Cδ/PIK3R1 and on PIK3Cα/PIK3R1 were 4.02e+06 M⁻¹ s⁻¹ and 4.09e+06 M⁻¹ s⁻¹, respectively.
On to `CNC(=O)c1cc(Oc2ccc(NC(=O)Nc3ccc(Cl)c(C(F)(F)F)c3)cc2)ccn1` [Sorafenib], for which the ka on p38α (MAPK14) is 17500 M⁻¹ s⁻¹; at p38α (MAPK14)^b, 19200 M⁻¹ s⁻¹; at RET it was 25500 M⁻¹ s⁻¹. Moreover, the “log(ka)” value at p38α (MAPK14) is on record as 4.24; on RET it was 4.41.
Turning to `Cc1cc(Nc2cc(N3CCN(C)CC3)nc(Sc3ccc(NC(=O)C4CC4)cc3)n2)[nH]n1` [Tozasertib], on AurB (AURKB), the ka was 31500 M⁻¹ s⁻¹.
